The text below walks through data of patent US20260062422A1 (Halda Therapeutics OpCo, Inc., priority 2022, published 2026).

SMILES strings stand for the structures.

One experiment concerns T47D cells. The experiment can be described thus: Cellular growth inhibition assay for T47D cells, CellTiter-Glo. The settings on record: 72 hours treatment, CellTiter-Glo 2.0 cell viability. The method, then:
T47D cells were purchased from American Type Cell Culture (ATCC Cat #HTB-133) and then seeded on poly-D-lysine coated, black clear-bottom 384-well plates at 3000/well in 25 μL Dulbecco's Modified Eagle Medium (DMEM) supplemented with 10% w/w Fetal bovine serum (FBS), 0.2 units/mL recombinant human insulin (Gibco Cat #12585014), and 1% w/w Pen-Strep. Pen-Strep is a commercially available mixture of penicillin G and streptomycin, which is used in mammalian cell culture media to prevent bacterial contamination. Dulbecco's Modified Eagle Medium (DMEM) supplemented with 10% w/w fetal bovine serum (FBS), 0.2 units/mL recombinant human insulin, and 1% w/w Pen-Strep is herein referred to as Treatment Medium. Following seeding of cells in the plates, the plates were spun at 300×g for 30 seconds, then equilibrated to room temperature for 30 minutes, and then deposited in a humidified tissue culture incubator maintained at 37° C. with 5% CO2.
At 24 hours after seeding of the cells, dilutions of test compound were prepared in DMSO and dissolved in Treatment Medium, to achieve a final DMSO concentration of 0.5% w/w, thereby providing the Test Compound Solution. A 25 μL aliquot of the Test Compound Solution was added to cells in the well plates. An equal volume of a solution containing DMSO and Treatment Medium was used as a negative control. Following treatment of cells with Test Compound Solution or said equal volume of a solution containing DMSO and Treatment Medium, the plates were spun at 300×g for 30 seconds, and then left in an incubator for 72 hours.
At the end of the treatment duration, cell viability was quantified with CellTiter-Glo 2.0 reagent (Promega Cat #G9243). For this purpose, plates were equilibrated to room temperature for 30 minutes, and then 25 μL of CellTiter-Glo 2.0 reagent was added to cells in the plate wells. […] Following incubation, the plates were spun at 3000×g for 30 seconds, then sealed with an optical adhesive cover, and luminescence readings were measured with an EnVision Plate Reader (Perkin Elmer).
Data was normalized using zero luminescence for baseline. […]
Background: ATP-based viability assays read luminescence as a measure of living cells.

The target of another experiment is BRD4-BD1 (Homo sapiens, UniProt O60885). The experiment can be described thus: bromoKdELECT assay for binding affinity to BRD4-BD1. The settings on record: Table 6. The method, then:
(§1) Compounds were tested using a bromoKdELECT assay. T7 phage strains displaying bromodomains were grown in parallel in 24-well blocks in an E. coli host derived from the BL21 strain. E. coli were grown to log-phase and infected with T7 phage from a frozen stock (multiplicity of infection=0.4) and incubated with shaking at 32° C. until lysis (90-150 minutes). The lysates were centrifuged (5,000×g) and filtered (0.2 μm) to remove cell debris. Streptavidin-coated magnetic beads were treated with biotinylated small molecule or acetylated peptide ligands for 30 minutes at room temperature to generate affinity resins for bromodomain assays. The liganded beads were blocked with excess biotin and washed with blocking buffer (SeaBlock (Pierce), 1% BSA, 0.05% Tween 20, 1 mM DTT) to remove unbound ligand and to reduce nonspecific phage binding. Binding reactions were assembled by combining bromodomains, liganded affinity beads, and test compounds in 1× binding buffer (17% SeaBlock, 0.33×PBS, 0.04% Tween 20, 0.02% BSA, 0.004% Sodium azide, 7.4 mM DTT). Test compounds were prepared as 1000× stocks in 100% DMSO. Kds were determined using an 11-point 3-fold compound dilution series with one DMSO control point. All compounds for Kd measurements are distributed by acoustic transfer (non-contact dispensing) in 100% DMSO. The compounds were then diluted directly into the assays such that the final concentration of DMSO was 0.09%. All reactions performed in polypropylene 384-well plates. Each was a final volume of 0.02 ml. The assay plates were incubated at room temperature with shaking for 1 hour and the affinity beads were washed with wash buffer (1×PBS, 0.05% Tween 20). The beads were then resuspended in elution buffer (1×PBS, 0.05% Tween 20, 2 M non-biotinylated affinity ligand) and incubated at room temperature with shaking for 30 minutes. The bromodomain concentration in the eluates was measured by qPCR.

The target of a further experiment is BRD4-BD2 (Homo sapiens, UniProt O60885). In words: bromoKdELECT assay for binding affinity to BRD4-BD2. To be noted: Table 7. The method, then:
as §1, with “2 μM” for “2 M”

In turn, `CCNC(=O)C[C@@H]1N=C(c2ccc(CN3CCN(c4ncc(C(=O)N[C@H]5C(C)(C)[C@H](Oc6ccc(C#N)c(Cl)c6)C5(C)C)cn4)CC3)cc2)c2c(sc(C)c2C)-n2c(C)nnc21` had a GI50 in the experiment with T47D cells of less than 500 nM. Moreover, the Kd at BRD4-BD1 and on BRD4-BD2 was 50 to 500 nM in each case.
In the experiment with T47D cells, `CCNC(=O)C[C@@H]1N=C(c2ccc(N3CC4(C3)CN(c3ncc(C(=O)N[C@H]5C(C)(C)[C@H](Oc6ccc(C#N)c(Cl)c6)C5(C)C)cn3)C4)cc2)c2c(sc(C)c2C)-n2c(C)nnc21` came in with a GI50 of 500 to 1500 nM. For the same compound, the Kd on BRD4-BD1 and at BRD4-BD2 was 50 to 500 nM each time.
As to `CCNC(=O)C[C@@H]1N=C(c2ccc(CC3CCN(c4ncc(C(=O)N[C@H]5C(C)(C)[C@H](Oc6ccc(C#N)c(Cl)c6)C5(C)C)cn4)CC3)cc2)c2c(sc(C)c2C)-n2c(C)nnc21`, the GI50 with T47D cells was in the range of 500 to 1500 nM. Moreover, the Kd on BRD4-BD1 and at BRD4-BD2 was more than 2500 nM each time.

The term GI50 denotes the concentration that inhibits growth by half. A low value points to greater sensitivity of the cells. By Kd is commonly meant the concentration at which binding is half-saturated.
